Molecular target: 5´Cy5-dT32 ssDNA
Assay: MST ssDNA-binding assay, dT32
Conditions: 10 nM 5´Cy5-dT32, MST, one site binding total

HsRPA complex: recombinant human RPA complex (6xHis-RPA1, RPA2, RPA3)
Kd: 15.8 nM

From paper PMC10359466, “Identification of a small-molecule inhibitor that selectively blocks DNA-binding by Trypanosoma brucei replication protein A1” (Nature Communications, 2023)
